## Measured affinities in a library of Ab-14 light chain variants

The measurements come from Li et al. 2023 (doi:10.1038/s41467-023-39022-2) through the FLAb antibody collection.

Target: peptide PDVDLGDISGINAS, taken from heptad repeat 2 (HR2) of SARS-CoV-2 spike.

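Phage display of a naive human antibody library on the peptide gave the parent. The variants were designed computationally from a first round of random CDR variants and then made and measured. Group labels follow the data file (Ctrl: baseline library sampled from a position-specific scoring matrix, with some repeated check sequences; GPLM: also part of the Gaussian process libraries; HC: hill climbing; a sequence that several methods proposed may carry one label only). The scFvs were displayed on barcoded MATa yeast, the peptide on MATalpha yeast. Binding brings cells together so that they mate, and sequencing counts the barcode pairs among the diploids. Scores were corrected for input abundance and mapped to Kd with protein pairs of known affinity run in the same pool. There are six technical replicates.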

The variants keep the heavy chain, the linker and the frameworks of Ab-14 (scFv order VH, a (GGGGS)3 linker, VL).
VH: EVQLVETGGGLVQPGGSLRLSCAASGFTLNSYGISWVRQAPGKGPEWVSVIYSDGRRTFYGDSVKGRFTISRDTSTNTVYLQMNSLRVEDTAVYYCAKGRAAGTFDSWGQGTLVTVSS
VL: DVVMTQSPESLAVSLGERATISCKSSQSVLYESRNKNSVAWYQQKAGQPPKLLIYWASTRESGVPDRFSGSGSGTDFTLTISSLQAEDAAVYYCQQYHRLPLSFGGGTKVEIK

Substitutions are numbered in sequence along the VL above, starting at 1 (not Kabat). The read-out is the apparent dissociation constant on a log10 scale (nM): the lower, the stronger. Averages over replicates are reported, and they cover detected replicates only. A pair that was not seen in that replicate is written "n.d."; this usually means weak binding, but a binder can also be missed. In the paper, a design with two or fewer of six values counts as a poor binder. A sequence measured in both rounds can read differently, since the two assays cover different ranges. Some sequences occur more than once in the pool; their replicates are listed entry by entry, parted by semicolons. Nonspecific signal, from three strains lacking the peptide, appeared in 4% of pairings of all light chain designs, centred on 2.64 (5% of these signals below 1.59); values are not corrected for it. For each scFv, signals with the empty controls are counted beside the result, with their mean in brackets.

changes	group	log10 Kd, replicates	mean, log10 nM	empty controls
V29L W56A T59Q	Ctrl	0.17 -0.01 -0.17 -0.19 -0.02 0.08	-0.02	0/18
S28Q K36T V39I	Ctrl	n.d. n.d. n.d. n.d. n.d. n.d.	n.d.	0/18
S25M K36S W56H R60Q E61N R99E	Ctrl	0.85 0.78 0.74 0.75 0.80 0.98	0.82	0/18
S25L Q27F Q95K R99E	Ctrl	n.d. 1.10 n.d. n.d. n.d. n.d.	1.10	0/18
N35D Q95F R99H	Ctrl	n.d. 1.83 n.d. n.d. n.d. 2.79	2.31	0/18
S33G K36S W56D E61W	Ctrl	0.37 0.30 0.16 -0.09 0.25 0.49	0.25	0/18
L30W W56A	Ctrl	1.31 1.10 0.60 0.92 0.85 0.83	0.94	0/18
V29I W56H	Ctrl+GPLM_HC	0.63 0.71 0.98 0.90 0.78 1.14; 2.55 1.83 1.44 2.21 1.79 2.41	1.45	4/36 (2.06)
Q27G R34M W56D S58T H98M	Ctrl	-0.06 -0.12 -0.54 -0.37 -0.26 0.34	-0.17	0/18
W56A P101F	Ctrl	0.56 0.82 0.76 0.52 1.07 0.33	0.68	0/18
V29H R34V W56A S62D	Ctrl	0.10 0.00 0.02 0.02 -0.11 0.20	0.04	2/18 (3.63)
S25L Y31S R99D	Ctrl	1.96 2.74 0.80 2.57 2.38 2.97	2.24	2/18 (2.65)
S25I L30F	Ctrl	0.60 1.06 0.82 1.15 0.94 0.53	0.85	1/18 (2.39)
K24V S25V W56T T59L R60P	Ctrl	n.d. n.d. n.d. 1.81 2.80 n.d.	2.30	0/18
S25I Y31T S33P R34E S103R	Ctrl	0.84 0.59 0.57 0.73 1.21 1.19	0.85	1/18 (2.19)
L30M V39C Q96C R99D	Ctrl	n.d. n.d. n.d. n.d. n.d. n.d.	n.d.	0/18
S28R Y31H S33G W56Q T59S	Ctrl	2.23 1.97 2.02 1.69 1.73 2.09	1.96	1/18 (3.31)
S28L W56N	Ctrl	1.35 0.59 0.84 0.81 0.84 0.90	0.89	0/18
T59M	Ctrl	2.65 2.77 3.14 2.22 3.92 2.41	2.85	0/18
R34K	Ctrl	1.87 2.76 2.22 3.66 2.30 2.10	2.48	1/18 (2.60)
K24M S25Y	Ctrl	n.d. n.d. 2.11 n.d. n.d. n.d.	2.11	1/18 (2.58)
Y31G N35G K36A W56Y	Ctrl	2.73 n.d. 1.77 n.d. 2.69 2.31	2.37	1/18 (1.44)
S25L S26P Y31D N37A	Ctrl	0.32 0.27 0.25 0.35 -0.08 0.12	0.20	2/18 (2.53)
V29T Y31L K36M S103D	Ctrl	n.d. 2.23 n.d. n.d. n.d. 2.00	2.12	2/18 (2.03)
L30R S33T R34M N35I N37W W56A	Ctrl	0.14 0.14 0.21 0.71 0.68 0.94	0.47	2/18 (2.64)
W56D E61H	Ctrl	0.62 0.61 0.66 0.56 0.76 0.73	0.66	1/18 (3.18)
K24M Y31W R34P A57G E61A	Ctrl	2.05 1.03 0.70 1.07 1.33 0.74	1.15	0/18
S25F Q27H W56E Q96S H98D	Ctrl	0.90 0.61 0.26 0.42 0.39 0.47	0.51	0/18
S25L S28E R99W	Ctrl	1.24 1.24 1.76 1.17 1.33 1.36	1.35	1/18 (3.29)
V29F S33E W56Q S58Y T59N	Ctrl	0.17 -0.03 -0.18 -0.29 0.06 -0.11	-0.06	1/18 (2.30)
T59V S62E	Ctrl	1.83 1.37 1.34 2.82 n.d. 1.73	1.82	3/18 (2.42)
S26Q N35C W56H	Ctrl	1.84 2.11 1.43 1.46 1.67 2.23	1.79	0/18
S25F R34N S62M	Ctrl	0.83 0.98 1.10 0.72 1.02 1.02	0.94	0/18
S26I T59D	Ctrl	n.d. n.d. n.d. n.d. n.d. n.d.	n.d.	0/18
V29S L30A V39H W56H L102C	Ctrl	n.d. n.d. n.d. n.d. n.d. n.d.	n.d.	0/18
S25V S33H W56R Y97H	Ctrl	n.d. n.d. n.d. n.d. 3.20 n.d.	3.20	1/18 (3.81)
R34I W56A S58T L102V	Ctrl	n.d. n.d. 3.30 2.43 n.d. n.d.	2.86	2/18 (3.46)
S25L E32D R34Q W56Q Y97V H98V	Ctrl	0.73 0.91 1.33 0.75 0.84 1.09	0.94	1/18 (2.19)
S25F Q27D N35Y W56S R99G S103R	Ctrl	1.28 0.98 2.34 1.29 0.95 1.34	1.36	1/18 (2.54)
E32D R99E	Ctrl	1.83 1.94 n.d. 2.49 2.98 2.08	2.26	2/18 (2.41)
S26A N35Q W56G E61T	Ctrl	0.62 0.96 0.99 0.55 0.54 1.06	0.79	4/18 (3.01)
Q27I V39I E61Y	Ctrl	n.d. n.d. n.d. n.d. n.d. n.d.	n.d.	0/18
Y31F N37D W56F	Ctrl	n.d. n.d. n.d. n.d. n.d. 1.45	1.45	2/18 (1.78)
Y31I K36M W56Q	Ctrl	0.65 0.48 0.11 0.22 0.00 0.49	0.32	0/18
Q27L S38A W56A Q95K	Ctrl	0.69 0.20 0.02 -0.12 0.39 0.88	0.34	2/18 (3.32)
L30P R34Y	Ctrl	n.d. n.d. n.d. 1.65 n.d. n.d.	1.65	1/18 (2.12)
K36C N37A S58T E61Q	Ctrl	n.d. n.d. n.d. n.d. n.d. n.d.	n.d.	1/18 (0.99)
S25I S28F R34T	Ctrl	n.d. n.d. n.d. 1.68 n.d. n.d.	1.68	0/18
S26D Q96A S103L	Ctrl	n.d. n.d. n.d. n.d. n.d. n.d.	n.d.	0/18
S25F E61A	Ctrl	0.58 0.94 0.83 1.54 0.87 1.09	0.97	1/18 (3.15)
S25M S38H A57E S103E	Ctrl	n.d. 2.05 n.d. n.d. n.d. n.d.	2.05	1/18 (1.69)
S25F Y31M K36V W56E E61H	Ctrl	n.d. 1.71 0.95 1.88 n.d. 1.79	1.59	0/18